This is an account of results in patent US6737397B1, “Control of cancer growth through the interaction of [MET5]-enkephalin and the zeta receptor” (The Penn State Research Foundation, priority 1996, dated 2004).

Series [1] deals with BxPC-3 human pancreatic tumor cells. In words: BxPC-3 human pancreatic tumor xenografts in nude mice treated with OGF. Format: in vivo. Here is the method:
BxPC-3 human pancreatic cancer cells, purchased from the American Type Culture Collection (Rockville, Md.), were grown in RPMI media containing 10% fetal calf serum, penicillin (10 units/ml), and streptomycin (100 μg/ml) in an atmosphere of 93% air and 7% CO2 at 37° C. Cell viability was determined by the trypan blue exclusion test. Three-to-4-week-old male athymic nude mice, obtained from Charles River Laboratories (Wilmington, Mass.), were injected subcutaneously over the right shoulder with BxPC-3 cells (log phase) in a 0.5 ml suspension of RPMI media. The day of tumor cell inoculation was considered day 0. Mice were evaluated daily and the date that the tumor became ‘visible’ was recorded. Individual tumors were measured with vernier calipers every 2 days. Measurements of the largest perpendicular dimensions were recorded and tumor volume was calculated using the formula: length×width^2×0.5[25]. The time of ‘initial’ appearance of a tumor wag considered to be the day when tumor volume was 5 mm^3 of greater. All mice were euthanized and necropsied 30 days after tumor cell inoculation. Tumor tissues for receptor binding assays, radioimmunoassays, and immunocytochemistry were rapidly frozen in liquid nitrogen and stored at −70° C. until assayed.
Drug treatment was initiated on the day of tumor cell inoculation. Mice received subcutaneous injections three times daily (i.e. 0730, 1200,1700 h) of either 5 mg/kg [Met^5]enkephalin (OGF) or an equal volume of sterile water (controls); the dosage of OGF was not toxic. Injections were administered in the right or left flank. Animals were weighed weekly and appropriate dosage adjustments made.
The latencies for visible and initial tumor appearance, as well as the appearance of a tumor volume measuring 62.5 mm^3 (when each perpendicular measurement was 5 mm), were recorded.
Latencies for visible and initial appearance as well as tumors ≧62.5 mm were analyzed using one way analysis of variance; subsequent comparisons were made with the Newman-Keuls tests. The number of mice with initial tumor appearance on selected days was expressed as a ratio of the total number of mice in the group, and comparisons of percentages were made with chi-square tests.
In general terms: Xenograft models place foreign cells or tissue in a host animal.

The conditions of series [2]: 5 mg/kg OGF three times daily, day 30.

With [Met^5]-enkephalin, in series [1] (5 mg/kg OGF three times daily), the “behavioral abnormalities (e.g. hyperactivity, biting)” value was “No behavioral abnormalities” and the “body weights versus sterile water” value is “comparable”. For the same substance, in series [1] (5 mg/kg OGF three times daily, 30 days), the “metastases or lesions at necropsy” value is reported as “No metastases or lesions”. Also, the “toxicity of the dosage” value in series [1] (5 mg/kg s.c. three times daily) is recorded as “not toxic”. In series [2], the “[Met5]enkephalin levels in tumors greater than in control animals” value was 24 fold and the “plasma [Met5]enkephalin greater in control mice than in animals receiving OGF” value was determined as 8.6 fold.
